Measured values: patent US20210290732A1, “GLP-1R and GCGR Agonists, Formulations, and Methods of Use” (Spitfire Pharma LLC, priority 2020, published 2021)
Where two headings read alike, the source gives them in different places.

Test: 6-week repeat-dose toxicity and toxicokinetics in cynomolgus monkeys (once weekly SC)
Type: in vivo, cynomolgus monkey (Macaca fascicularis)
Conditions: for AUC(0-t) / Cmax / Tmax / half-life: mean, monkey plasma
Description: The study was conducted by Covance.
Male and female cynomolgus monkeys (28 animals/sex; Macaca fascicularis) of Asian origin were received from Envigo Global Services Inc. (previously Covance Research Products) in Alice, Tex. Animals were acclimated to the test facility for at least 30 days prior to initiation.
Animals were dosed via subcutaneous injection into the dorsal region on Days 1, 8, 15, 22, 29, and 36 of the dosing phase at a volume of 2.0 mL/kg. The vehicle control article was F58 Formulation Buffer, which consisted of 0.050% (w/w) polysorbate 20, 0.348% (w/w) arginine, 4.260% (w/w) mannitol in deionized water (pH 7.7±0.1).
Assessment of toxicity was based on mortality, clinical observations, body weights, qualitative food consumption, ophthalmic observations, electrocardiographic (ECG) measurements, neurological examinations, qualitative respiration rates, and clinical and anatomic pathology. Blood samples were collected for toxicokinetic evaluations.
The dose sites were in the dorsal scapular region of each animal. Doses were rotated between the sites. The dose sites were as follows: Dose Site A: Upper left scapular region, Dose Site B: Upper right scapular region, Dose Site C: Lower left scapular region, Dose Site D: Lower right scapular region The following animals were not dosed due to body weight loss, body condition score, and veterinary recommendation on the days listed in the following table.
Body weights were recorded for animals four times during the predose phase, on Day −1 of the dosing phase (day prior to dose initiation), and weekly thereafter (based on Day −1) to Day 14 of the dosing phase. Starting on Day 14 of the dosing phase, body weights were collected twice weekly (based on Day 14) through to the end of the dosing phase. Body weights were collected on Days 1, 8, 15, 22, and 28 of the recovery phase. Data presented in FIG. 13 and FIG. 14 represent body weight change as a % of Day-1 in males and females respectively.

[1] = both sexes, cynomolgus monkey, plasma, subcutaneous, 0.03 mg/kg, Day 1, Group 2, 0.03 mg/kg, MF
[2] = both sexes, cynomolgus monkey, plasma, subcutaneous, 0.03 mg/kg, Day 36, Group 2, 0.03 mg/kg, MF
[3] = both sexes, cynomolgus monkey, plasma, subcutaneous, 0.06 mg/kg, Day 1, Group 3, 0.06 mg/kg, MF
[4] = both sexes, cynomolgus monkey, plasma, subcutaneous, 0.06 mg/kg, Day 36, Group 3, 0.06 mg/kg, MF
[5] = both, cynomolgus monkey, plasma, subcutaneous, […], Day 1, Group 4, […], MF
[6] = both, cynomolgus monkey, plasma, subcutaneous, […], Day 1, Group 5, […], MF
[7] = both, cynomolgus monkey, plasma, subcutaneous, […], Day 36, Group 4, […], MF
[8] = both, cynomolgus monkey, plasma, subcutaneous, […], Day 36, Group 5, […], MF
[9] = cynomolgus monkeys, dosing or recovery phase
[10] = cynomolgus monkeys, terminal or recovery sacrifices
[11] = female, cynomolgus monkey, plasma, subcutaneous, 0.03 mg/kg, Day 1, Group 2, 0.03 mg/kg, F
[12] = female, cynomolgus monkey, plasma, subcutaneous, 0.03 mg/kg, Day 36, Group 2, 0.03 mg/kg, F

Compound: CC[C@H](C)[C@H](NC(=O)[C@H](Cc1ccccc1)NC(=O)[C@H](CCC(=O)O)NC(=O)[C@@H]1CCCCNC(=O)CC[C@H](NC(=O)[C@H](CC(=O)O)NC(=O)[C@H](CC(C)C)NC(=O)[C@H](Cc2ccc(O)cc2)NC(=O)[C@H](CCCCN)NC(=O)[C@H](CO)NC(=O)[C@H](Cc2ccc(O)cc2)NC(=O)[C@H](CC(=O)O)NC(=O)[C@H](CO)NC(=O)[C@@H](NC(=O)[C@H](Cc2ccccc2)NC(=O)[C@@H](NC(=O)CNC(=O)[C@H](CCC(N)=O)NC(=O)C(C)(C)NC(=O)[C@@H](N)Cc2c[nH]cn2)[C@@H](C)O)[C@@H](C)O)C(=O)N[C@@H](CCCCNC(=O)[C@H]2O[C@@H](OCCCCCCCCCCCCCCCCCC(=O)O)[C@H](O)[C@@H](O)[C@@H]2O)C(=O)N[C@@H](C)C(=O)N[C@@H](C)C(=O)N1)C(=O)N[C@@H](CCC(N)=O)C(=O)N[C@@H](Cc1c[nH]c2ccccc12)C(=O)N[C@@H](CC(C)C)C(=O)N[C@@H](CC(C)C)C(=O)N[C@@H](CCC(N)=O)C(=O)N[C@H](C(N)=O)[C@@H](C)O [SEQ ID NO: 1]
- NOAEL at 6 weeks (both sexes, cynomolgus monkey, in vivo, subcutaneous, monkeys, high dose): 0.25 mg/kg
- AUC(0-t) (both sexes, cynomolgus monkey, plasma, subcutaneous, 0.03 mg/kg, AUC0-168, Day 1, Group 2, 0.03 mg/kg, MF): 6100 ng·h/mL
- AUC(0-t) (both sexes, cynomolgus monkey, plasma, subcutaneous, 0.03 mg/kg, AUC0-168, Day 36, Group 2, 0.03 mg/kg, MF): 6280 ng·h/mL
- Cmax [1]: 60.9 ng/mL
- Tmax [1]: 48 h
- half-life [1]: 56.5 h
- AUC(0-t) (both sexes, cynomolgus monkey, plasma, subcutaneous, 0.03 mg/kg, Day 1, Group 2, 0.03 mg/kg, MF, read-out: AUC0-t): 6100 ng·h/mL
- Cmax [2]: 64.9 ng/mL
- Tmax [2]: 48 h
- half-life [2]: 54.5 h
- AUC(0-t) (both sexes, cynomolgus monkey, plasma, subcutaneous, 0.03 mg/kg, Day 36, Group 2, 0.03 mg/kg, MF, read-out: AUC0-312): 7640 ng·h/mL
- AUC(0-t) (both sexes, cynomolgus monkey, plasma, subcutaneous, 0.03 mg/kg, Day 36, Group 2, 0.03 mg/kg, MF, read-out: AUC0-t): 7500 ng·h/mL
- AUC(0-t) (both sexes, cynomolgus monkey, plasma, subcutaneous, 0.06 mg/kg, AUC0-168, Day 1, Group 3, 0.06 mg/kg, MF): 10300 ng·h/mL
- AUC(0-t) (both sexes, cynomolgus monkey, plasma, subcutaneous, 0.06 mg/kg, AUC0-168, Day 36, Group 3, 0.06 mg/kg, MF): 13400 ng·h/mL
- Cmax [3]: 99.5 ng/mL
- Tmax [3]: 48 h
- half-life [3]: 53.7 h
- AUC(0-t) (both sexes, cynomolgus monkey, plasma, subcutaneous, 0.06 mg/kg, Day 1, Group 3, 0.06 mg/kg, MF, read-out: AUC0-t): 10300 ng·h/mL
- Cmax [4]: 140 ng/mL
- Tmax [4]: 36 h
- half-life [4]: 60.3 h
- AUC(0-t) (both sexes, cynomolgus monkey, plasma, subcutaneous, 0.06 mg/kg, Day 36, Group 3, 0.06 mg/kg, MF, read-out: AUC0-312): 15400 ng·h/mL
- AUC(0-t) (both sexes, cynomolgus monkey, plasma, subcutaneous, 0.06 mg/kg, Day 36, Group 3, 0.06 mg/kg, MF, read-out: AUC0-t): 15300 ng·h/mL
- Tmax [5]: 48 h
- half-life [5]: 61.6 h
- Tmax [6]: 36 h
- half-life [6]: 63 h
- Tmax [7]: 36 h
- half-life [7]: 62.3 h
- Tmax [8]: 48 h
- half-life [8]: 61.8 h
- AUC (both, cynomolgus monkey, plasma, subcutaneous, cynomolgus monkeys, 0.25 mg/kg/dose, read-out: area under the concentration time curve (AUC) at the NOAEL): 62300 ng·h/mL
- hematology, coagulation, clinical chemistry, urinalysis (cynomolgus monkeys): No ALT-801-related findings
- no adverse effect level (NOAEL) (cynomolgus monkeys): 0.25 mg/kg/week
- mortality [9]: No ALT-801-related mortality
- neurological observations [9]: No remarkable neurological observations
- ophthalmic observations (cynomolgus monkeys, dosing phase): No remarkable ophthalmic observations
- food consumption, females (cynomolgus monkeys, females administered ≥0.03 mg/kg/dose): lower food consumption
- food consumption, males (cynomolgus monkeys, males administered ≥0.03 mg/kg/dose): No ALT-801-related changes in food consumption
- organ weights (cynomolgus monkeys, terminal or recovery necropsies): No ALT-801-related changes in organ weights
- macroscopic findings [10]: No ALT-801-related macroscopic findings
- microscopic findings [10]: No ALT-801-related microscopic findings
- vomitus (cynomolgus monkeys, observed once on Day 2 in two females): not considered an ALT-801-related clinical observation
- AUC(0-t) (female, cynomolgus monkey, plasma, subcutaneous, 0.03 mg/kg, AUC0-168, Day 1, Group 2, 0.03 mg/kg, F): 6140 ng·h/mL
- AUC(0-t) (female, cynomolgus monkey, plasma, subcutaneous, 0.03 mg/kg, AUC0-168, Day 36, Group 2, 0.03 mg/kg, F): 5970 ng·h/mL
- Cmax [11]: 61.8 ng/mL
- Tmax [11]: 48 h
- half-life [11]: 56.1 h
- AUC(0-t) (female, cynomolgus monkey, plasma, subcutaneous, 0.03 mg/kg, Day 1, Group 2, 0.03 mg/kg, F, read-out: AUC0-t): 6140 ng·h/mL
- Cmax [12]: 65.9 ng/mL
- Tmax [12]: 30 h
- half-life [12]: 60.4 h
